# Laboratory results from article PMC6631257, “A Single Site Population Study to Investigate CYP2D6 Phenotype of Patients with Persistent Non-Malignant Pain” (Medicina, 2019).
# Tested on: patients with persistent non-malignant pain
compound,measurement,setting,value
COc1ccc2c3c1O[C@H]1[C@@H](O)C=C[C@H]4[C@@H](C2)N(C)CC[C@@]341 [codeine],"'unexpected' adverse event: flu-like symptoms, participants",11/125,8%
same,"'unexpected' adverse event: stomach cramps, participants",11/125,9%
same,"'unexpected' adverse event: diarrhoea, participants",13/125,10%
same,"'expected' adverse event: constipation, participants",37/125,30%
same,"'expected' adverse event: nausea, participants",41/125,33%
same,"'expected' adverse event: headache, participants",46/125,37%
same,serious adverse events,during the course of the study,no reported serious adverse events
same,participants who withdrew from the study due to adverse events,"females, of 131 enrolled",Three
